Data on 1 substance can be found in patent US9884125B2, “Glucose-responsive insulin conjugates” (Merck Sharp & Dohme Corp., priority 2013, dated 2018).

The IC50 is the midpoint of a concentration-inhibition curve.

The assay concerns the target T1, Human macrophage mannose receptor 1 (MRC1) (Homo sapiens, UniProt P22897).
T1 sequence (P22897 19-1456): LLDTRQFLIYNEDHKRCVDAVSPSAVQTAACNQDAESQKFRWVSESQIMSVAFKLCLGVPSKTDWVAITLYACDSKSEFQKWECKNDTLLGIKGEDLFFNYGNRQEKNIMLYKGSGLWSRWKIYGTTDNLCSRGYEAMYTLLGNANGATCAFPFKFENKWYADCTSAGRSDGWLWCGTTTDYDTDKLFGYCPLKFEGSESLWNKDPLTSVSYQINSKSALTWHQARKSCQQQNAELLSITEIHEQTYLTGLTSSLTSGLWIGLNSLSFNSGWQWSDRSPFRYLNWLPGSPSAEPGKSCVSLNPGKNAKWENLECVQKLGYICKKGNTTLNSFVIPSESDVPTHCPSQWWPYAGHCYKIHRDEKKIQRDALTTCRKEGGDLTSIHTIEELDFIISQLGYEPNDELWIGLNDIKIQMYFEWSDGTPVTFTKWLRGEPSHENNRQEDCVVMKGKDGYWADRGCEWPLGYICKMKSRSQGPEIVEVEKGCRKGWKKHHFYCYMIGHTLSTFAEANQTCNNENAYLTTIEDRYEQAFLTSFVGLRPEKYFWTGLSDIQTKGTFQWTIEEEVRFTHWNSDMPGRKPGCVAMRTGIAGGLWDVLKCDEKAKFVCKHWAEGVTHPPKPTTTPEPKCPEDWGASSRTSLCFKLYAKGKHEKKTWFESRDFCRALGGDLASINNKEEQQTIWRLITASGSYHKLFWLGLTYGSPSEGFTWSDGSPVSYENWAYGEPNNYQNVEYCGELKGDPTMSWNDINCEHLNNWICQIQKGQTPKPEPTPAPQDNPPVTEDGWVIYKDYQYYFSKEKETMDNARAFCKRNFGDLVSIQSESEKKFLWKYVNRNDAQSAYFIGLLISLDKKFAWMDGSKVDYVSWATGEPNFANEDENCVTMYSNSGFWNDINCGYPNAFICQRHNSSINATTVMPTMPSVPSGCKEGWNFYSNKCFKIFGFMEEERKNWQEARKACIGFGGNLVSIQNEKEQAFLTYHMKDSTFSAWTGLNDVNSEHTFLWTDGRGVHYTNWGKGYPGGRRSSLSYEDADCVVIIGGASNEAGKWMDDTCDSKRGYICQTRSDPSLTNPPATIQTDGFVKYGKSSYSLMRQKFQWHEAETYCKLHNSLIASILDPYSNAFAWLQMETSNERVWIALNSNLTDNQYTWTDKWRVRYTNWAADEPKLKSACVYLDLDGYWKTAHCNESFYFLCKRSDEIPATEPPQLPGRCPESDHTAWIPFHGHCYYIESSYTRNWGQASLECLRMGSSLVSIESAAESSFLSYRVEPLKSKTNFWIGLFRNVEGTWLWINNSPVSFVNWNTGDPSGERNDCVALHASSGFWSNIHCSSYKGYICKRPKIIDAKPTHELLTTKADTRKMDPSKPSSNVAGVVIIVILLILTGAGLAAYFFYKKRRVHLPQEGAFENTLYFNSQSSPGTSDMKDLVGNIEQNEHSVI
The experiment in a line: MRC1 competition binding assay (Eu-mannosylated-BSA), Method F: 96-well, manual liquid dispense. The note with it: read-out: MRC1 Binding IP (inflection point, corresponds to IC50). How it is done: The competition binding assay for MRC1 utilized a ligand, mannosylated-BSA labeled with the DELFIA Eu-N1-ITC reagent, as reported in the literature. […] The antibody was incubated in the plate for 1 hr at room temperature with shaking. The plate was washed with wash buffer 3-5 times followed by addition of MRC1 (2 ng/μl final concentration) in 25 μl PBS containing 1% stabilizer BSA. The plate was incubated at room temperature with gentle shaking for 1 hr. The plate was washed three times with wash buffer. […]
Their in vitro biological activities towards insulin receptor (IR) were measured by either ligand competition assays or functional phosphorylation assays, as described above, labeled as following: Method A: IR phosphorylation assay based on 96-well with manual liquid dispense; Method B: IR phosphorylation assay based on 96-well with automated liquid dispense; Method C: IR phosphorylation assay based on 384-well with automated liquid dispense; Method D: IR binding assay method D; Method E: IR binding assay method E; Method F: MRC1 assay was performed in a 96-well plate with a manual liquid dispense; Method G: MRC1 assay was performed in a 96-well plate with an automated liquid dispense; Method H: MRC1 assay was performed in a 384-well plate with an automated dispense.

Consider “N^εB29-6-((((2-oxo-2-((α-D-mannopyranosyl-(1→3)-[α-D-mannopyranosyl-(1→6)]-α-D-mannopyranosyl)-2-oxyethyl)amino) (2-oxo-2-((α-L-fucopyranosyloxy)-2-oxoethyl)amino)ethyl)amino)acetamido)-6-oxohexanoyl Human Insulin [IOC-58]”, for which the IC50 turned out to be 7.95 nM.
